Experimental data from PubChem BioAssay AID743247 (Broad Institute, 2014).
The list shows a part of the results, in another mix than the full data. Some results for these compounds are left out of this collection, so the calls shown say nothing about other tests. Calls of active or inactive are those of the source.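 Rule for the calls: active = mean inhibition across replicates of 30% or more, regardless of how many single replicates reach that level; inconclusive = mean under 30% yet at least half of replicates reach 30%; inactive = the rest.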

Assay: blockers of fibronectin fibrillogenesis by fibroblasts – AH1F cells, Alexa488-fibronectin fluorescence, plate reader, primary screen (AID 743247);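 note: positive control wells lacked labelled fibronectin entirely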
Conditions: Alexa488-fibronectin deposition fluorescence, overnight, at 12.6 µM, stronger effect = higher value
In short: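 material = AH1F fibroblast monolayer depositing Alexa488-labelled fibronectin into matrix | amount = 10000 AH1F cells/well | buffer or medium = DMEM plus 2% serum, read in PBS | incubation = 1 h cell adhesion before compound, then overnight fibronectin incubation | detection = fluorescence at 485 nm excitation, 525 nm emission | evaluation = percent inhibition as loss of matrix-bound fibronectin fluorescence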

Row | SMILES | inhibition
1 | CN1[C@@H]2CC[C@H]1CC(OC(=O)C(O)(c1ccccc1)c1ccccc1)C2 (some centres not stated) | inactive: -7.82%
2 | O=C(NCC1(N2CCCCC2)CCCCC1)c1cc([N+](=O)[O-])ccc1Cl | inactive: -5.13%
3 | Cc1ccc(C(=O)NCC2(N3CCCCC3)CCCCC2)cc1 | inactive: 2.91%
4 | COc1cc(SC)ccc1C(=O)NCC1(N(C)C)CCCCC1 | inactive: 1.46%
5 | CCN(CC)CC(C)C(C)OC(=O)C(O)(c1ccccc1)c1ccccc1 (configuration not stated) | inactive: -5.28%
6 | CN(C)c1ccc(C(=O)NCC2(N(C)C)CCCCC2)cc1 | inactive: -1.59%
7 | CN(C)C1CCCC1OC(=O)C(O)(c1ccccc1)c1ccccc1 (configuration not stated) | inactive: -1.6%
8 | Cc1ccccc1C(=O)NCC1(N2CCCCC2)CCCCC1 | inactive: -3.44%
9 | COc1ccc(C(=O)NCC2(N(C)C)CCCCC2)cc1 | inactive: -1.4%
10 | O=C(NCC1(N2CCCCC2)CCCCC1)c1cccc(Br)c1 | inactive: -1.7%
11 | CCN1CCCC(OC(=O)C2(O)c3ccccc3C=Cc3ccccc32)C1 (configuration not stated) | inactive: -2.64%
12 | Cc1cc(C(=O)NCC2(N3CCCCC3)CCCCC2)ccc1[N+](=O)[O-] | inactive: 4.83%
13 | O=C(NCC1(N2CCCCC2)CCCCC1)c1cc(F)c(F)cc1Cl | inactive: -14.3%
14 | COc1cc(C(=O)NCC2(N(C)C)CCCCC2)c([N+](=O)[O-])cc1OC | inactive: 6.34%
15 | CN(C)C1(CNC(=O)c2ccc(Br)cc2)CCCCC1 | inactive: 0.693%
16 | O=C(NCC1(N2CCCCC2)CCCCC1)c1cccc(Cl)c1 | inactive: 1.97%
17 | COc1ccc(Cl)cc1C(=O)NCC1(N(C)C)CCCCC1 | inactive: -3.13%
18 | COc1cccc(C(=O)NCC2(N3CCCCC3)CCCCC2)c1 | inactive: 11.8%
19 | O=C(OCCN1CCCC1)C(O)(c1ccccc1)c1ccccc1 | inactive: -9.65%
20 | CC(C)Oc1ccc(C(=O)NCC2(N(C)C)CCCCC2)cc1 | inactive: 4.18%
21 | C=C(C)C#CC(O)(C(=O)OC1CCN(C)CC1)c1ccccc1 (configuration not stated) | inactive: 4.72%
22 | COc1ccc(Br)c(C(=O)NCC2(N3CCCCC3)CCCCC2)c1 | inactive: -14.4%
